Molecular target: Human Dcp2 (Homo sapiens, UniProt Q8IU60)
Test: RNA decapping assay with recombinant hDcp2
Conditions: fraction of decapped RNA after 30 min of incubation with hDcp2, 27-nt RNA capped with the analog, 37 °C; triplicates ± SD
Experimental: Human Dcp2 was expressed in E. coli and purified as described previously ([52]). Short 27 nt-capped RNAs (24.2 ng) were diluted with decapping buffer (50 mM Tris–HCl pH 8.0, 50 mM NH4Cl, 0.01% NP-40, 1 mM DTT, 5 mM MgCl2 and 2 mM MnCl2; 2.9 μl of freshly prepared 10 × Buffer) and the final volume was adjusted to 29 μl with ultrapure RNase free water. 4.2 ng (5 μl) of the solution was taken out as time zero reference and diluted with 5 μl loading dye (5 M urea, 44% formamide, 20 mM EDTA, 0.03% bromophenol blue, 0.03% xylene cyanol). The remaining RNAs (20 ng/24 μl) were subjected to 10 nM hDcp2 (250 nM, 1 μl) and the mixtures were incubated at 37°C for 1 h. […] The decapping progress was determined for each time point by densitometry analysis of the gels, as a ratio between the intensity of the band corresponding to capped RNA and the sum of the intensity of bands from capped and uncapped RNAs. […]
The RNAs used to determine the capping efficiencies were also useful to study the susceptibility of capped RNA to decapping by hDcp2, the catalytic subunit of the major human mRNA decapping complex Dcp1/Dcp2, which releases m^7GDP and 5′-monophosphorylated RNA (in this case the 26-nt pApG-RNA24; Figure 4C). […] To quantify the relative susceptibility to hDcp2, we compared the decapping levels at the 30 min time point (Table 1). […]

Row | SMILES | Susceptibility to hDcp2 (@30 min)
1 | C[n+]1cn([C@@H]2O[C@H](COP(=O)(O)OP(=O)([O-])OP(=O)(O)OC[C@H]3O[C@@H](n4cnc5c(N)ncnc54)[C@H](O)[C@@H]3OP(=O)(O)OC[C@H]3O[C@@H](n4cnc5c(=O)[nH]c(N)nc54)[C@H](O)[C@@H]3O)[C@@H](O)[C@H]2O)c2nc(N)nc(O)c21 | 0.90 ± 0.04
2 | CNc1ncnc2c1ncn2[C@@H]1O[C@H](COP(=O)(O)OP(=O)([O-])OP(=O)(O)OC[C@H]2O[C@@H](n3c[n+](C)c4c(O)nc(N)nc43)[C@H](O)[C@@H]2O)[C@@H](OP(=O)(O)OC[C@H]2O[C@@H](n3cnc4c(=O)[nH]c(N)nc43)[C@H](O)[C@@H]2O)[C@H]1OC | 0.67 ± 0.02

— article PMC11472058, “Trinucleotide cap analogs with triphosphate chain modifications: synthesis, properties, and evaluation as mRNA capping reagents” (Nucleic Acids Research, 2024)
